Measurements published in ChEMBL document CHEMBL5729726, “Tricyclic compounds as histone methyltransferase inhibitors” (2023).

Amino acid sequences for entries named in this document (tags omitted). Residues count along the entry.
UniProt Q96KQ7, 2-1210 limits assumed: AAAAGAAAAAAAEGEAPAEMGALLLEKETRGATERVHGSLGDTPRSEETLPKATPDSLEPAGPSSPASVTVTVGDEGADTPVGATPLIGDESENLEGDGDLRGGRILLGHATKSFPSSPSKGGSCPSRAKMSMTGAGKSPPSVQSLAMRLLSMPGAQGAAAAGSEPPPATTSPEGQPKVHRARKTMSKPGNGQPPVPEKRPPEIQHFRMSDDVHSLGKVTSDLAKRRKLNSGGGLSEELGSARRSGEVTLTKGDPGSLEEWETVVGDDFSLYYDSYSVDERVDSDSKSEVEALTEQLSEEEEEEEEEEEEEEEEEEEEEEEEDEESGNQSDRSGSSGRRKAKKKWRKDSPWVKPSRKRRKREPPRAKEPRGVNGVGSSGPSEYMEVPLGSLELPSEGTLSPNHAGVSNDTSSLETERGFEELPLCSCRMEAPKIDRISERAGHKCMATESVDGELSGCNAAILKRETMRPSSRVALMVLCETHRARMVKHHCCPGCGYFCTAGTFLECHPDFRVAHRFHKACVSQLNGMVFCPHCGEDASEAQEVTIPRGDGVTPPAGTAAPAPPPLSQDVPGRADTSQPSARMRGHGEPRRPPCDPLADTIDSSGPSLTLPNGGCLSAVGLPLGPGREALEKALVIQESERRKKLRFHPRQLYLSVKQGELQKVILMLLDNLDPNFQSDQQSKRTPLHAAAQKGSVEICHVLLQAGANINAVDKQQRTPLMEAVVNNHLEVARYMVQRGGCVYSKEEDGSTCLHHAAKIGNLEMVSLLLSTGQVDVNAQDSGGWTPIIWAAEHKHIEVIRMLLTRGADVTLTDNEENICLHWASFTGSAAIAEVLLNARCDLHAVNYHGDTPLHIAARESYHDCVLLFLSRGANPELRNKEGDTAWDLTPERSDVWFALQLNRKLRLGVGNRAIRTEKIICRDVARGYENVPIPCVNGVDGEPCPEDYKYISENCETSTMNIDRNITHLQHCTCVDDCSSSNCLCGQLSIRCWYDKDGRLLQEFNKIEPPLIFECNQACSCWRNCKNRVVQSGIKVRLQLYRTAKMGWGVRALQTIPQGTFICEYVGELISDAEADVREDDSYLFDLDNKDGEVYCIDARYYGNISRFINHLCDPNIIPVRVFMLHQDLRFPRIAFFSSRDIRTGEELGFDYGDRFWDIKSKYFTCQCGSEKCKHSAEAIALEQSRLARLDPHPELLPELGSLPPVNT

Target: Histone-lysine N-methyltransferase EHMT2 (Homo sapiens, UniProt Q96KQ7)
Test: Enzymatic Activity Assay: For the assay, the following buffer was used to set up reactions: 50 mM Tris-HCl pH9, 50 mM NaCl, 0.01% Tween-20 and 1 mM DTT (added fresh prior to starting the reactions). The assay is set up by adding a final concentration of 0.15 nM G9a, 15 uM S-adenosyl-methionine and 100 nM biotinylated histone 3 peptide (1-21). The reaction is incubated at rt for 1 hour and subseque

## COc1cc2nc3c(c(N(C(N)=O)C4CCNCC4)c2cc1OC)CCC3
  IC50: 355 nM
